Source: patent publication US10093660B2, “Sulfoximine substituted quinazolines for pharmaceutical compositions” (EVOTEC INTERNATIONAL GMBH, priority 2013, dated 2018)
pIC50: −log10 of the molar value.

Sequences of proteins named here, by UniProt entry; tags and fusion partners are left off. A change or cut given only in a name is not applied to a line headed by its entry. A line that says so, or that is headed by a name, gives the form on record, which may keep a tag or linker.
UniProt Q9HBH9: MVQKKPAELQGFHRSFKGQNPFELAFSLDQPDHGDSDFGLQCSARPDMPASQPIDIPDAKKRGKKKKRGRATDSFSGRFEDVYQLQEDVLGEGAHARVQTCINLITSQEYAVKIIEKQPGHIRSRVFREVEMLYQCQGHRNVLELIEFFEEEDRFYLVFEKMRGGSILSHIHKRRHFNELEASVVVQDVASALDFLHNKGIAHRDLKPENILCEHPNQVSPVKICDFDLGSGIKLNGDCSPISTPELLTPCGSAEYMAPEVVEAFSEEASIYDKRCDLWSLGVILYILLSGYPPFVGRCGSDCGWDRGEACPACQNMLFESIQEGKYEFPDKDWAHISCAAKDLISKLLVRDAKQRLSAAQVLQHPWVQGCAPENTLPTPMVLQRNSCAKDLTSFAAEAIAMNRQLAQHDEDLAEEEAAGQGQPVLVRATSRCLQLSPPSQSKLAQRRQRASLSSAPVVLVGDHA
UniProt Q9BUB5, other isoform, or with tags, fused parts or gaps: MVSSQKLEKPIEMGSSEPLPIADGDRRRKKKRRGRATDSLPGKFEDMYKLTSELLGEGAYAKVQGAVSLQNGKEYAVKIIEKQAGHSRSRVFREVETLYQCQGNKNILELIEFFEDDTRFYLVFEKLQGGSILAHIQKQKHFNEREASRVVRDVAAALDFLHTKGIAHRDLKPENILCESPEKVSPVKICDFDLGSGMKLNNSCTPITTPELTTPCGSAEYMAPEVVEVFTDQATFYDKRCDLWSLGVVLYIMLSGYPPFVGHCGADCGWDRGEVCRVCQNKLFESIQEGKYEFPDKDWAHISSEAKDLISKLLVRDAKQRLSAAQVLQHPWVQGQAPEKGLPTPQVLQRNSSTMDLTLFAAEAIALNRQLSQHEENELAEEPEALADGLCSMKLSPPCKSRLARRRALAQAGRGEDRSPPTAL

Each compound was assayed against MNK2a (Homo sapiens (Human), UniProt Q9HBH9) (assay: MNK2a in vitro kinase assay (Assay 2), ADP-Glo). Conditions: read-out: MNK2 IC50.
Type: biochemical
From the text: B. MNK2a In Vitro Kinase Assay (Assay 2)

| pIC50 | Structure (SMILES) |
| --- | --- |
| 7.80 | Cc1cc(N=S2(=O)CCCCC2)cc2ncnc(Nc3cccnc3O[C@H]3COC[C@H]3O)c12 (racemic) [Example 2.31] |
| 8.15 | O=S1(=Nc2cc(F)c3c(Nc4cccnc4O[C@H]4COC[C@H]4O)ncnc3c2)CCC1 (racemic) [Example 2.33] |
| 7.62 | CO[C@@H]1COC[C@H]1Oc1ncccc1Nc1ncnc2cc(N=S(C)(C)=O)cc(C)c12 (racemic) [Example 2.34] |
| 8.05 | CO[C@@H]1COC[C@H]1Oc1ncccc1Nc1ncnc2cc(N=S3(=O)CCC3)cc(C)c12 (racemic) [Example 2.35] |
| 8.70 | CO[C@@H]1CC[C@@H](Oc2cc(F)ccc2Nc2ncnc3cc(N=S(C)(C)=O)cc(C)c23)CO1 (racemic) [Example 2.63] |
| 7.72 | Cc1cc(N=S2(=O)CCCC2)cc2ncnc(Nc3cccnc3O[C@@H]3COC[C@@H]3O)c12 (single isomer, unassigned) [Example 14.3] |
| 8.70 | Cc1cc(N=S2(=O)CCCC2)cc2ncnc(Nc3cccnc3O[C@H]3COC[C@H]3O)c12 (single isomer, unassigned) [Example 14.4] |
| 8.40 | O=S1(=Nc2cc(F)c3c(Nc4cccnc4O[C@H]4COC[C@@H]4O)ncnc3c2)CCCC1 [Example 2.44] |
| 8.15 | Cc1cc(N=S(C)(C)=O)cc2ncnc(Nc3ccc(F)cc3O[C@H]3COC[C@@H]3O)c12 [Example 2.45] |
| 8.52 | O=S1(=Nc2cc(F)c3c(Nc4ccc(F)cc4O[C@H]4COC[C@@H]4O)ncnc3c2)CCCC1 [Example 2.66] |
| 8.10 | Cc1cc(N=S(C)(=O)C2CC2)cc2ncnc(Nc3ccc(F)cc3O[C@H]3COC[C@@H]3O)c12 (stereo partly drawn) [Example 2.77] |

Second part, the compound before the results:

| Structure (SMILES) | pIC50 |
| --- | --- |
| CO[C@H]1COC[C@H]1Oc1ncccc1Nc1ncnc2cc(N=S(C)(C)=O)cc(C)c12 (racemic) [Example 2.1] | 7.66 |
| Cc1cc(N=S2(=O)CCC2)cc2ncnc(Nc3ccc(F)cc3O[C@@H]3COC[C@@H]3O)c12 (single isomer, unassigned) [Example 1.36] | 8.52 |
| Cc1cc(N=S2(=O)CCC2)cc2ncnc(Nc3ccc(F)cc3O[C@H]3COC[C@H]3O)c12 (single isomer, unassigned) [Example 1.37] | 8.52 |
| Cc1cc(N=S2(=O)CCCC2)cc2ncnc(Nc3cccnc3O[C@H]3COC[C@@H]3O)c12 [Example 2.24] | 8.40 |
| Cc1cc(N=S(C)(C)=O)cc2ncnc(Nc3ccc(F)cc3O[C@H]3COC[C@@H]3O)c12 [Example 2.27] | 8.40 |
| Cc1cc(N=S2(=O)CCC2)cc2ncnc(Nc3ccc(F)cc3O[C@H]3COC[C@@H]3O)c12 [Example 2.36] | 8.52 |
| Cc1cc(N=S2(=O)CCC2)cc2ncnc(Nc3cccnc3O[C@H]3COC[C@@H]3O)c12 [Example 2.41] | 8.70 |
| Cc1cc(N=S2(=O)CCC2)cc2ncnc(Nc3ccc(F)cc3O[C@@H]3COC[C@H]3O)c12 [Example 2.47] | 8.52 |
| Cc1cc(N=S2(=O)CCC2)cc2ncnc(Nc3cccnc3O[C@@H]3COC[C@H]3O)c12 [Example 2.49] | 8.22 |

These compounds were tested against MNK1a (Homo sapiens (Human), UniProt Q9BUB5) (assay: MNK1 in vitro kinase assay (Assay 3), Z'-LYTE). Conditions: not given.
Type: biochemical
From the text: C. MNK1 In Vitro Kinase Assay (Assay 3)
MNK1 Data can be obtained from the MNK1 Z′-LYTE® assay. The MNK1 Z′-LYTE® screening protocol and assay conditions are also described on www.invitrogen.com.
The assay is described as follows:
The Z′-LYTE® biochemical assay employs a fluorescence-based, coupled-enzyme format and is based on the differential sensitivity of phosphorylated and non-phosphorylated peptides to proteolytic cleavage. The peptide substrate is labeled with two fluorophores—one at each end—that make up a FRET pair.
In the primary reaction, the kinase transfers the gamma-phosphate of ATP to a single tyrosine, serine or threonine residue in a synthetic FRET-peptide. In the secondary reaction, a site-specific protease recognizes and cleaves non-phosphorylated FRET-peptides. […] A ratiometric method, which calculates the ratio (the Emission Ratio) of donor emission to acceptor emission after excitation of the donor fluorophore at 400 nm, is used to quantitate reaction progress, as shown in the equation below. […]
9. Read on fluorescence plate reader and analyze the data […]
SelectScreen® Kinase Profiling Service uses XLfit from IDBS. […] The activity of a candidate agent can then be determined via its ability to decrease the enzymatic activity of the MNK protein. The kinase activity may be detected by change of the chemical, physical or immunological properties of the substrate due to phosphorylation.

| Structure (SMILES) | pIC50 |
| --- | --- |
| Cc1cc(N=S(C)(C)=O)cc2ncnc(Nc3cccnc3O[C@H]3COC[C@H]3OCCF)c12 (racemic) [Example 2.26] | 7.00 |
